The numbers were not newly measured in patent publication US20150023920A1, “NOVEL COMPOSITIONS AND METHODS FOR PREVENTING OR TREATING CANCER METASTASIS” (Drexel University, priority 2012, published 2015), which cites them from elsewhere.

Data set [1] has as its target T1, IL-1β (Homo sapiens, UniProt P01584). The conditions noted are these: cited from earlier work.
For data set [2], the target named is T1, IL-1β. The conditions noted are these: cited from earlier work. The source holds these as a separate data set.

“XOMA-052: potent anti-IL-1β humanized neutralizing antibody”: in the data set with IL-1β [1], the “binding affinity for human IL-1β” value was 300 femtomolar. In addition, the in vitro potency entry in the data set with IL-1β [2] is recorded as “low picomolar range”.
